Experiments:
cancer VX-2 of liver = test: Tumor affinity in cancer VX-2 of liver after intravenous injection; type: in vivo, rabit; conditions: 10 mg/kg, 90'
Source text: Tumor affinity in cancer VX-2 of liver of
rabit after intravenous injection of SMANX

[1] = tested on: normal fibroblasts of rabit; test: Cell toxicity to normal fibroblasts; type: cell-based; set-up: key: +: Intensity of toxicity; -: No toxicity; conditions: judgement after 3 days
Source text: Comparison of cell toxicity
to normal fibroblasts of rabit*
*Judgement after 3 days

[2] = Solubility of SMANX in various solvents compared with NCS and starting copolymer (Table 1); type: physicochemical; conditions: concentration: 1 mg/ml
Method: The solubility of SMANX in various solvents is shown in the following Table 1 and compared with NCS and the half butyl-esterified styrene-maleic anhydride copolymer used as the starting materials.
(concentration: 1 mg/ml)

## neocarzinostatin-half butyl-esterified styrene-maleic acid copolymer complex [SMANX]
Cancer VX-2 of liver
  Tumor affinity, distant site (normal liver): < 0.32
  Tumor affinity, interior of tumor: 0.7
[1]; 0.2 μg/ml
  Cell toxicity to normal fibroblasts: -
[1]; 0.5 μg/ml
  Cell toxicity to normal fibroblasts: -
[1]; 1.8 μg/ml
  Cell toxicity to normal fibroblasts: -
[2]
  Solubility in 10 mM aqueous solution of sodium bicarbonate: soluble
  Solubility in Acetone: swell
  Solubility in Dioxane: swell
  Solubility in Lipiodol: soluble
  Solubility in Methanol: soluble
  Solubility in Pyridine: soluble
[2]; pH 5.0
  Solubility in Water pH 5.0: insoluble
[2]; pH 8.0
  Solubility in Water pH 8.0: soluble
